A selection: hits, their analogues and other compounds. The true share with any hit is near 0.43%.
B2AR arrestin: qHTS assay of beta-arrestin-biased ligands of beta2-adrenergic receptor; Beta-2 adrenergic receptor (Homo sapiens), P07550; beta-arrestin recruitment to beta2AR, cell-based reporter; Potency, µM (titrated, usually from 46.1 µM), without a hit: top-dose activation, hits mostly activators; 330,000 compounds, 0.02% hits; active = well fitted curve in the direction sought with a large enough effect; inconclusive = small, poorly fitted or top-dose-only effect, or another doubt; inactive = no such curve, though single readings can be large; an effect the other way counts as inactive or inconclusive;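 also: potency is read from the fitted curve at half-maximal effect; 0% = DMSO controls and full agonism = EC100 isoproterenol or metaproterenol; nearly all actives have a fitted effect of over 65% in size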
MmCpn inh: Inhibitors of TCP-1 ring complex (TRiC) of Methanococcus maripaludis (MmCpn): qHTS. purified Mm-Cpn ATPase, ADP Transcreener TR-FRET. Potency, µM (top dose mostly 76.9 µM), for the others: top-dose activity, negative = inhibition, hits mostly inhibitors. 330,000 compounds, 0.031% hits; active = well fitted curve in the direction sought with a large enough effect; inconclusive = small, poorly fitted or top-dose-only effect, or another doubt; inactive = no such curve, though single readings can be large; an effect the other way counts as inactive or inconclusive; also: potency is read from the fitted curve at half-maximal effect; % is scaled to controls: 0 for no effect and ±100 for the full control effect; nearly all actives have a fitted effect of over 80% in size
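25 nM Mm-CPN + cpd, 10 min 37°C; + 10 uM ATP, 30 min 37°C; buffer 30 mM Tris pH 7.4, 100 mM KCl, 5 mM MgCl2, 1 mM DTT; Transcreener ADP HTRF detection 30 min RT.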
Rango-impB inh: qHTS Assay for Inhibitors of Rango (Ran-regulated importin-beta cargo) - Importin beta complex formation; Importin subunit beta-1 (Homo sapiens), Q14974; Rango CFP/YFP FRET sensor + importin beta, 45 min; Potency, µM (highest dose often 92.2 µM), for the others: at the top dose inhibition of complex formation; 340,000 compounds, 0.031% hits;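 also: potency is read from the fitted curve at half-maximal effect; 0% = DMSO wells and 100% = buffer wells lacking importin beta; nearly all actives have a fitted effect of over 15% in size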
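FRET biosensor (snurportin 1 IBB flanked by EYFP and cerulean), 50 nM, with compound 5 min, then 0.125 microM importin beta in PBS, 1 mM DTT, 0.02% Tween-20, 0.1% BSA. CFP/YFP ratio read after 45 min at room temperature; pre-read flags interference.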
Rango dissoc inh: qHTS Assay for Inhibitors of RanGTP induced Rango (Ran-regulated importin-beta cargo) - Importin beta complex dissociation; Snurportin-1 (Homo sapiens) + GTP-binding nuclear protein Ran (Homo sapiens) + Importin …; Biochemical FRET Rango-importin beta, RanGTP-induced dissociation; Potency, µM (titrated, usually from 46.1 µM), inactives show top-dose activity change, negative = inhibition; 340,000 compounds, 0.071% hits; AID 540253, 2011; also: potency is read from the fitted curve at half-maximal effect; % of control where 0% means no effect; nearly all actives have a fitted effect of over 45% in size
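Rango/importin beta premix (0.1/0.25 uM final), PBS + 1 mM DTT + 0.02% Tween-20 + 0.1% BSA; cpd 5 min RT; FRET pre-read; + RanGTP-RCC1 (0.6 uM Ran, 2 mM GTP, 0.2 uM RCC1); 45 min RT; FRET post-read, ex 430, em 486/530 nm.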
CCT modulator: High-Throughput Screening for Modulators of Cytosolic Chaperonin Activity | purified chaperonin ATPase assay, HTRF ADP detection, 30 min | activity change, % (test concentration not listed), hits read low | 360,000 compounds, 0.3% hits | AID 651819, 2012; in the data active = activity change below about -30%; also: % is scaled to controls: 0 for no effect and ±100 for the full control effect
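ATPase activity: ADP formed was measured by HTRF Transcreener (665/615 nm ratio) after 30 min at 37 deg C with 10 uM ATP. Compounds screened at one 76 uM concentration against 40 or 20 nM TRiC in Tris pH 7.4/KCl/MgCl2/DTT buffer.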
An asterisk follows results filed as active; u = inconclusive; x = not tested or not shown; ! = not active in a repeat. Unless noted, calls follow the shape of the full dose curve.

By UniProt entry, the sequences of proteins in these tests, tags left out.
Importin subunit beta-1 (Homo sapiens), Q14974, UniProt Q14974, whole entry, looked up: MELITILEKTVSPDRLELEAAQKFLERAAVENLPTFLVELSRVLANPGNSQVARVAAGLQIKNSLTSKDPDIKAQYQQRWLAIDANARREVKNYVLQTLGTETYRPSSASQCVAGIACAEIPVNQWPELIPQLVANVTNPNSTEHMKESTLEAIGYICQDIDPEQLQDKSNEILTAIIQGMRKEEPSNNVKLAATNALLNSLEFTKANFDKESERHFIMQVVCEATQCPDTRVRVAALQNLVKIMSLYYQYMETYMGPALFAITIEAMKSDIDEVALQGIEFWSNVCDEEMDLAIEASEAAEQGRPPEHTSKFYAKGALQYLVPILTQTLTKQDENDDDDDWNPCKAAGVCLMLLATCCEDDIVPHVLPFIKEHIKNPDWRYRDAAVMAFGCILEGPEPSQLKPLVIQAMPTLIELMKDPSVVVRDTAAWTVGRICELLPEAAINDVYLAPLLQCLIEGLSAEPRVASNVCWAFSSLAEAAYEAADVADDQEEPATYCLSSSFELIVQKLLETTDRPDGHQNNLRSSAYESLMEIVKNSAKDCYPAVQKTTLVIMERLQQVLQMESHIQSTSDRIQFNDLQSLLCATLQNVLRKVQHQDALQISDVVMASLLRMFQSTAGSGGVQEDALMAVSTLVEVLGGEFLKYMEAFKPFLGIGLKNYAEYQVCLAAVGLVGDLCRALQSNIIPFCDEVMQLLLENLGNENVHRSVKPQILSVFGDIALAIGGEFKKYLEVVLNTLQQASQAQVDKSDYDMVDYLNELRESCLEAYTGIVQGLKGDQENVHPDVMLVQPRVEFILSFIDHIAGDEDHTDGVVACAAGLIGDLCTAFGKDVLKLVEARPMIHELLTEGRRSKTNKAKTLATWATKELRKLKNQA

Values run as follows: Rango-impB inh	B2AR arrestin	CCT modulator	MmCpn inh	Rango dissoc inh
CCOc1ccc(CCNC(=O)CCCn2c(=O)c3cccn3c3cccnc32)cc1OCC
    -0.8%	0.0%	-85.8*	1.5%	1.0%
COc1ccc(CCNC(=O)CCCn2c(=O)c3cccn3c3cccnc32)c(OC)c1OC
    1.8%	0.1%	-3.0	-7.5%	-7.6%
COc1ccc(Cl)cc1C(=O)OCC(=O)NC(=O)c1cccn1C
    -3.5%	-1.0%	-0.6	-2.7%	16.4%
CCCOc1c(Br)cc(C(=O)OCC(=O)NC(=O)c2cccn2C)cc1OC
    0.1%	0.2%	-46.5*	2.2%	-23.3%
CCOC(=O)CCc1c(C)c2c(C)nn(-c3ccccc3)c2[nH]c1=O
    -2.9%	-0.7%	-33.8*	1.0%	13.7%
COc1cc(NC(=O)c2csc(-c3ccncc3)n2)cc(C(=O)Nc2cccc(C(F)(F)F)c2)c1
    2.6%	-0.6%	-34.8*!	-5.1%	8.5%
Cn1c(SCC(=O)Nc2ccc(N3CCOCC3)cc2)nnc1-c1ccccc1
    1.1%	0.1%	-35.2*	-1.1%	-15.4%
CN1CCc2c(sc(NC(=O)CS(=O)(=O)c3ccccc3)c2C(N)=O)C1
    u	0.1%	-2.2	-2.3%	23.1µM*
NC(=O)CC(NC(=O)Cc1ccc(Cl)cc1)c1ccc(NCCN2CCOCC2)c([N+](=O)[O-])c1 (centres undefined)
    0.3%	-1.1%	0.5	-2.1%	-1.9%
Cn1c(=S)c2[nH]c(SCCN3CCCC3)nc2n(C)c1=O
    -0.2%	15.8µM*	-0.3	-3.6%	-2.4%
Cn1c(=S)c2[nH]c(SCCN)nc2n(C)c1=O
    0.3%	x	-0.6	x	37.3%
CCNC(=O)C1CC(=O)N(c2ccc(OCC)cc2)C1 (centres undefined)
    2.7%	0.0%	0.5	2.5%	-2.3%
CCOc1ccc(N2CC(C(=O)NCC(=O)Nc3ccc(F)c(F)c3F)CC2=O)cc1 (centres undefined)
    -2.4%	0.3%	-55.3*	-1.6%	1.1%
COc1ccccc1C1CC(c2ccco2)=NN1c1ccccc1 (centres undefined)
    u	0.2%	-4.3	-7.0%	16.4µM*
CN(CCOc1ccc(Cl)cc1)C(=O)c1cc(-c2ccco2)nc2ccccc12
    -1.1%	0.1%	0.9	-13.9%	0.3%
CCCCNC(=O)C(c1ccc(OCC(=O)OC)c(C(=O)OC)c1)N(CCc1c[nH]c2ccccc12)C(=O)CCCCCN1C(=O)NC(c2ccc(-c3ccccc3)cc2)C(C(=O)OCc2ccccc2)=C1C (centres undefined)
    x	-0.1%	x	-6.1%	x
Clc1cccc(C2Nc3cccc4cccc(c34)N2)c1Cl
    -0.2%	2.82µM*	-1.9	-6.6%	-3.3%
Cc1ccc(S(=O)(=O)N2CCOCC2)cc1NC(=O)COC(=O)CNC(=O)c1ccc(Cl)cc1Cl
    1.9%	0.4%	1.6	-3.9%	-1.0%
CC(O)(c1cccc(F)c1)c1nc(-c2ccncc2)cs1 (centres undefined)
    x	x	-30.9*	x	x
CCOC(=O)CC1=C(C(=O)OCC)C(c2cc(OC)c(OC)cc2OC)C(C#N)=C(N)O1 (centres undefined)
    u	0.0%	-0.4	0.2%	14.6µM*

Five records drawn at random from those above:
Values run as follows: Rango-impB inh	B2AR arrestin	CCT modulator	MmCpn inh	Rango dissoc inh
CCCOc1c(Br)cc(C(=O)OCC(=O)NC(=O)c2cccn2C)cc1OC
    0.1%	0.2%	-46.5*	2.2%	-23.3%
CN1CCc2c(sc(NC(=O)CS(=O)(=O)c3ccccc3)c2C(N)=O)C1
    u	0.1%	-2.2	-2.3%	23.1µM*
CC(O)(c1cccc(F)c1)c1nc(-c2ccncc2)cs1 (centres undefined)
    x	x	-30.9*	x	x
Cn1c(=S)c2[nH]c(SCCN)nc2n(C)c1=O
    0.3%	x	-0.6	x	37.3%
NC(=O)CC(NC(=O)Cc1ccc(Cl)cc1)c1ccc(NCCN2CCOCC2)c([N+](=O)[O-])c1 (centres undefined)
    0.3%	-1.1%	0.5	-2.1%	-1.9%

Further compounds:
Values run as follows: Rango-impB inh	B2AR arrestin	CCT modulator	MmCpn inh	Rango dissoc inh
COCCN(CCOC)C(=O)c1cc2sc3ccccc3c2s1
    2.3%	0.0%	-31.0*	-3.9%	-1.3%
CN(C)S(=O)(=O)c1cc([N+](=O)[O-])ccc1N1CCCCCC1
    1.1%	-0.1%	-30.8*	-5.9%	5.9%
C/C(=N/NC(=O)CNC(=O)c1cccs1)c1ccco1
    4.4%	6.0%	-0.4	0.1%	-0.2%
CCn1c(SCC(=O)NCc2ccc3c(c2)OCO3)nnc1-c1ccncc1
    -1.4%	0.1%	-53.4*	0.4%	2.9%
CCOCCCNC(=O)C(c1ccc(OC)cc1)N(Cc1ccc2c(c1)OCO2)C(=O)c1cnccn1 (centres undefined)
    1.3%	0.0%	-64.7*	-1.0%	-16.0%
CCOCCCNC(=O)C(c1ccc(OC)cc1)N(Cc1ccc2c(c1)OCO2)C(=O)c1ccccn1 (centres undefined)
    -1.4%	0.0%	-14.9	1.0%	-15.6%
CN(Cc1ccco1)c1ncnc2ccc(-c3ccc4c(c3)OCCO4)cc12
    x	0.0%	x	-12.6%	x
O=C(NCCCNC(=O)c1c(Cl)cccc1Cl)c1c(Cl)cccc1Cl
    3.3%	x	0.6	x	0.6%
O=C(NCCCNC(=O)c1c(F)cccc1F)c1c(F)cccc1F
    -1.0%	-0.4%	-77.7*	-10.7%	-13.4%
Cc1ccc2nc(-c3ccc(N)cc3)sc2c1
    u	0.3%	-0.3	-5.1%	15.7%
Nc1ccc(-c2nc3cc(N)ccc3s2)cc1
    u	-1.0%	-41.5*	-15.6%	-6.5%
CCOc1cccc(CNCc2ccc(C(=O)O)cc2)c1
    0.8%	0.0%	-70.4*	-0.3%	0.2%
O=C(O)c1ccc(CNCc2cccc(Oc3ccccc3)c2)cc1
    1.1%	-0.7%	-1.2	1.0%	-5.5%
O=S(=O)(NCCc1ccc(F)cc1)c1ccc(F)cc1Br
    3.1%	-0.1%	-0.9	0.7%	4.8%
CN1C(=CC=C2C=C(I)C(=O)C(I)=C2)C(C)(C)c2ccccc21
    1.4%	-0.6%	-2.1	-2.2%	-6.7%
CN1/C(=C\C=C2/SC(=S)NC2=O)C(C)(C)c2ccccc21
    23.1µM*	0.4%	-1.8	u	u
O=S(=O)([O-])CCC[n+]1c(/C=C\Nc2ccccc2)oc2ccc(-c3ccccc3)cc21
    x	-0.1%	x	0.4%	x
O=C(Nc1ccccc1C(=O)O)c1cc(S(=O)(=O)NCc2ccccc2)ccc1Cl
    1.8%	-0.3%	-60.1*	1.2%	-7.7%
Cc1ccc(C(=O)Nc2ccccc2C(=O)O)cc1S(=O)(=O)NCc1ccccc1
    3.4%	0.7%	-2.4	2.3%	-0.2%
COc1ccc(-c2sc(C(=O)c3ccc(Cl)cc3Cl)cc2CC(=O)O)cc1
    u	-0.8%	-1.5	50.1µM*	u
O=C(O)Cc1ccc(C(=O)c2ccc(Cl)cc2Cl)s1
    -2.3%	0.1%	-2.0	-0.1%	-5.9%
O=C(COC(=O)c1ccc(O)cc1)Nc1ccc2c(c1)OCO2
    -0.3%	-0.1%	0.9	-2.1%	8.6%
CC(C)(C)n1nnnc1C(c1ccccc1)N1CCc2ccccc2C1 (centres undefined)
    -3.5%	0.1%	-57.4*	-7.8%	-10.6%
CN1CCN(C2=Nc3c(Cl)cc(Cl)c4cccc2c34)CC1
    51.7µM*	0.1%	-3.7	2.7%	2.4%
Cn1c(N)c(C(=O)COC(=O)Cc2ccc(Cl)cc2)c(=O)n(C)c1=O
    -2.2%	-0.3%	1.4	1.8%	1.4%
COc1cc(OC)cc(C2=NCCN2)c1
    6.6%	-0.3%	-1.4	-9.6%	9.3%

Bioassay records as filed in PubChem.
